# Measured affinities in a library of Ab-14 light chain variants

Data: MIT Lincoln Laboratory AlphaSeq set, Li et al. 2023, doi:10.1038/s41467-023-39022-2, as distributed in FLAb.

Target: peptide PDVDLGDISGINAS, taken from heptad repeat 2 (HR2) of SARS-CoV-2 spike.

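The parent was found by panning a naive human phage display library on the peptide. The variants were designed computationally from a first round of random CDR variants and then made and measured. Group labels follow the data file (Ctrl: baseline library sampled from a position-specific scoring matrix, with some repeated check sequences; GP: Gaussian process model; HC: hill climbing; Gen: genetic algorithm; Gibbs: Gibbs sampling; a sequence that several methods proposed may carry one label only). AlphaSeq pools MATa yeast showing the antibodies with MATalpha yeast showing the peptide. Mating (16 h, 30 °C) was followed by selection of diploids and sequencing of their barcodes. Each replicate has its own calibration line, from reference interactions of the BCL2 family. There are six technical replicates.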

Parent: Ab-14, a human scFv built as VH, three GGGGS repeats, VL. Only the CDRs of the light chain vary.
VH: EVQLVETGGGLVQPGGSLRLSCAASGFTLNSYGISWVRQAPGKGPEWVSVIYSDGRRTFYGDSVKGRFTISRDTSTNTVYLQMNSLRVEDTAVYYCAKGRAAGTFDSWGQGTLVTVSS
VL: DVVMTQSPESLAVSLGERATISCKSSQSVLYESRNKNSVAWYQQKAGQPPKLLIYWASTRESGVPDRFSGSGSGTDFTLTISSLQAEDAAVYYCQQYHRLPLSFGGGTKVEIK

The parent's light chain CDRs are KSSQSVLYESRNKNSVA, WASTRES, QQYHRLPLS; each variant's own CDRs replace them letter for letter. Variants here have at most six changes. The Kd shown is the geometric mean over detected replicates; a lower Kd is a better binder. An entry "nd" has no value in the source: the pair was not observed among the diploids in any replicate. This suggests poor binding but is not conclusive. In the paper, a design with two or fewer of six values counts as a poor binder. Background: pairings of all light chain designs with three empty control strains gave a value in 4% of cases (median 430 nM, 5th percentile 38 nM). Values in that range, when seen in few replicates, are hard to tell from nonspecific mating. The range of this assay differs from that of the first round, and the authors advise against merging the two. Of ten entries with the parent sequence, four were seen in most replicates (averages 2.2 nM to 240 nM), three in one and three in none, so single entries are noisy.

CDR-L1,CDR-L2,CDR-L3,group,apparent Kd,detected
KYSQQELYESINLNSVA,NASTRES,QQYHRLPLS,Ctrl,1.5 nM,6/6
KSQQSVLYESRNSNSVA,NASTREL,QDYHRLPLS,GP_Gibbs,4.2 nM,6/6
KSLQAWLYESRNKNSVA,HASTREQ,QQYHRLPLS,GP_HC,8.8 nM,6/6
KSSISGLYESRNENSVA,EASTREQ,QQYHRLPLS,GP_HC,4.9 nM,6/6
HSSPSVPYESRNKNSVA,NASTRES,QDYHRLPLS,GP_HC,1.5 nM,6/6
KLSQSVLYESRMKNSVA,NASTRLS,QQYHRLPLS,GP_Gen,1.4 nM,6/6
KLSQSDLYESRNKNSVA,EASTREE,QQYHRLPLS,GP_Gen,1.4 nM,6/6
KLSQSYLYESRNKNSVA,HASTRCS,QQYHRLPLS,GP_Gen,3.4 nM,6/6
KFSQKVLYEGRTKNSVA,NGSTRES,QQYHRLPLS,GP_HC,980 pM,6/6
KSGQSVLYASRNKNSVA,WATTREL,QQYERLPLS,Ctrl,nd,0/6
KMSQSVKMESRNKNSVA,DASTRES,QQYHRLPLS,GP_HC,990 pM,6/6
KSSQSVLYESRFTNSVA,RASTRES,QQYHRLPLS,Ctrl,170 nM,4/6
KLSQSELYESRNKNSVA,NASQREE,QQYHRLPLS,GP_Gen,1.1 nM,6/6
KFSQSVLYEDRNKNSVA,NASQREQ,QQYHRLPLS,GP_Gen,880 pM,6/6
KSLISVLYESNNKNSVA,HASTRED,QQYHRLPLS,GP_HC,29 nM,6/6
KLSQSVLYEDRNKNSVA,NASQRLS,QQYHRLPLS,GP_Gen,790 pM,6/6
KADQSWLYESRNKNSVA,GASTRES,QQYHRLPLI,GP_HC,1.4 nM,6/6
KQSQSVLMESRNANSVA,DASTRES,QQYVRLPLS,GP_HC,7.3 nM,6/6
KLSQSDLYESRNKNSVA,HASQRES,QQYHRLPLS,GP_Gen,2.3 nM,6/6
KSDQGVLYESRNKNSVA,GASLRES,QQYHRLPLS,GP_HC,1.2 nM,6/6
KLSQSVLYESRVKNSVA,GASTRES,QQYHRLPLS,GP_Gen,1.1 nM,6/6
KSSQSWLYEDRVKNSVA,GASTRES,QQYHRLPLS,GP_HC,2.1 nM,6/6
KSSQSWLYESRNKNSVA,GASFRES,QQYHRLPLS,GP_HC,2.0 nM,6/6
KLSQSQLYESRNKNSVA,NASTRYS,QQYHRLPLS,GP_Gen,690 pM,6/6
KMSQSQLYEWRNKNSVA,NASYRES,QQYHRLPLS,GP_Gibbs,3.1 nM,6/6
KSSQSGLYTSHNKNSVA,WASKRES,QQYHRLPLS,Ctrl,560 nM,4/6
KFSQSVLGESRNENSVA,GASTRES,QQYHMLPLS,Ctrl,1.6 nM,6/6
KLPQSVLYEQRNSNSVA,NASTRFS,QQYHRLPLS,GP_Gibbs,1.2 nM,6/6
KITQSVHYESPNKNSVA,TASTRES,QQYHRLPLS,Ctrl,24 nM,6/6
KMSQSVLYESKNKNSVA,WASTRES,QQYHRLPLS,Ctrl,87 nM,1/6
KSSQSVLYESENKNSVA,WASTRES,FQYHRLPLS,Ctrl,nd,0/6
KSSPSVLMESRNMNSVA,WASTREQ,QQYHRMPLS,Ctrl,24 nM,6/6
KLQQSTLYESRNKNSVA,QASTRES,QQYHRLPLT,GP_HC,930 pM,6/6
WSSQSVLGESRNKNSVA,AASTREV,QQYHRLPLS,Ctrl,5.1 nM,6/6
KLSQSVMYESRNKNSVA,NASTREQ,QQYHRLPLS,GP_Gen,520 pM,6/6
KLRQSTNYESRNQNSVA,WASTRES,QQYHRLPLS,GP_HC,7.5 nM,6/6
KSSHSYLEESRNKNSVA,EASTRES,QQYHRLPLS,GP_HC,10 nM,6/6
KMQQSVLYESRNKNSVA,NASTRMS,QQYHRLPLS,GP_Gen,1.4 nM,6/6
KVQQSELYESRNKNSVA,HASTRES,QQYHRLPLS,GP_Gen,460 pM,6/6
KVSGSHLYESRNKNAVA,EASTRES,QQYHRLPLS,GP_Gen,310 pM,6/6
KFSQSVLYESRFKNSVA,NAVTRET,QQYHRLPLS,GP_HC,600 pM,6/6
KLSQSKLYESRNKNSVA,NASTRMS,QQYHRLPLS,GP_Gen,1.4 nM,6/6
KSSQSVLYYSRNKNSVA,WASTRES,QQYHRLPLS,Ctrl,7.1 µM,1/6
KLPQSWLYESRNKNSVA,NASTRES,QDYHRLPLS,GP_Gen,1.1 nM,6/6
KLYQSVLYESRNKNAVA,NASQRES,QQYHRLPLS,GP_Gen,570 pM,6/6
KMSQSWLYESRNSNSVA,NASQRES,QQYHRLPLS,GP_Gen,2.0 nM,6/6
KLSQSMLYESRNKNNVA,EASTRES,QQYHRLPLS,GP_Gen,190 pM,6/6
HVSQSVLQESRNKNSVA,EASQRER,QQYHRLPLS,GP_Gibbs,1.2 nM,6/6
QSSQSVLYESRNKNSIA,NASTRES,QQYHRLPLS,Ctrl,5.7 nM,6/6
KSSQSVLYESRNKNSVA,WASTREW,QQYHRLPLS,Ctrl,140 nM,1/6
KMEQGVLYESRNKGSVA,GASTRES,QQYHRLPLS,GP_HC,610 pM,6/6
HLSPSVLYESRNKNNVA,NASTRES,QQYHRLPLS,GP_HC,280 pM,6/6
KLQQSMLYESRNKNSVA,EASTRES,QQYHRLPLS,GP_Gen,750 pM,6/6
KSRQSVLYESRNKNSVA,WASTRES,QQMPRLPLS,Ctrl,440 nM,1/6
KSSNSVLYESRNKNQVA,WASTRES,QQYHRLPLS,Ctrl,nd,0/6
KFSDSVELESRTKNSVA,NASTRES,QQYHRLPLS,GP_HC,880 pM,6/6
YSSQSVLYESRNKNSVA,HASTRES,QQYHCLVLS,Ctrl,33 nM,1/6
KVSQSVLYESRMKNSVA,DASTRSS,QQYHRLPLE,GP_HC,440 pM,6/6
KLSQSVWYESRNKNSVA,NASTRCS,QQYHRLPLS,GP_Gen,1.5 nM,6/6
RSSQSVLYDSRNKNSVA,DASARES,QQYQRLPLS,Ctrl,2.3 nM,6/6
KSLWSVLQESNNKNSVA,HASTRED,QQYHRLPLS,GP_HC,6.9 nM,6/6
KLSGSMLYESRNKNSVA,NASQRES,QQYHRLPLS,GP_Gen,550 pM,6/6

The closing 10 entries, repeated:

CDR-L1,CDR-L2,CDR-L3,group,apparent Kd,detected
KLQQSMLYESRNKNSVA,EASTRES,QQYHRLPLS,GP_Gen,750 pM,6/6
KSRQSVLYESRNKNSVA,WASTRES,QQMPRLPLS,Ctrl,440 nM,1/6
KSSNSVLYESRNKNQVA,WASTRES,QQYHRLPLS,Ctrl,nd,0/6
KFSDSVELESRTKNSVA,NASTRES,QQYHRLPLS,GP_HC,880 pM,6/6
YSSQSVLYESRNKNSVA,HASTRES,QQYHCLVLS,Ctrl,33 nM,1/6
KVSQSVLYESRMKNSVA,DASTRSS,QQYHRLPLE,GP_HC,440 pM,6/6
KLSQSVWYESRNKNSVA,NASTRCS,QQYHRLPLS,GP_Gen,1.5 nM,6/6
RSSQSVLYDSRNKNSVA,DASARES,QQYQRLPLS,Ctrl,2.3 nM,6/6
KSLWSVLQESNNKNSVA,HASTRED,QQYHRLPLS,GP_HC,6.9 nM,6/6
KLSGSMLYESRNKNSVA,NASQRES,QQYHRLPLS,GP_Gen,550 pM,6/6